Experimental data published in patent publication US12421225B2, “Heteroaromatic amide derivative and medicament containing the same” (KAKEN PHARMACEUTICAL CO., LTD., priority 2018, dated 2025).

Protein sequences, listed by entry. Tags and fused reporters are not part of them. Residues count along the entry.
UniProt Q15858, whole entry: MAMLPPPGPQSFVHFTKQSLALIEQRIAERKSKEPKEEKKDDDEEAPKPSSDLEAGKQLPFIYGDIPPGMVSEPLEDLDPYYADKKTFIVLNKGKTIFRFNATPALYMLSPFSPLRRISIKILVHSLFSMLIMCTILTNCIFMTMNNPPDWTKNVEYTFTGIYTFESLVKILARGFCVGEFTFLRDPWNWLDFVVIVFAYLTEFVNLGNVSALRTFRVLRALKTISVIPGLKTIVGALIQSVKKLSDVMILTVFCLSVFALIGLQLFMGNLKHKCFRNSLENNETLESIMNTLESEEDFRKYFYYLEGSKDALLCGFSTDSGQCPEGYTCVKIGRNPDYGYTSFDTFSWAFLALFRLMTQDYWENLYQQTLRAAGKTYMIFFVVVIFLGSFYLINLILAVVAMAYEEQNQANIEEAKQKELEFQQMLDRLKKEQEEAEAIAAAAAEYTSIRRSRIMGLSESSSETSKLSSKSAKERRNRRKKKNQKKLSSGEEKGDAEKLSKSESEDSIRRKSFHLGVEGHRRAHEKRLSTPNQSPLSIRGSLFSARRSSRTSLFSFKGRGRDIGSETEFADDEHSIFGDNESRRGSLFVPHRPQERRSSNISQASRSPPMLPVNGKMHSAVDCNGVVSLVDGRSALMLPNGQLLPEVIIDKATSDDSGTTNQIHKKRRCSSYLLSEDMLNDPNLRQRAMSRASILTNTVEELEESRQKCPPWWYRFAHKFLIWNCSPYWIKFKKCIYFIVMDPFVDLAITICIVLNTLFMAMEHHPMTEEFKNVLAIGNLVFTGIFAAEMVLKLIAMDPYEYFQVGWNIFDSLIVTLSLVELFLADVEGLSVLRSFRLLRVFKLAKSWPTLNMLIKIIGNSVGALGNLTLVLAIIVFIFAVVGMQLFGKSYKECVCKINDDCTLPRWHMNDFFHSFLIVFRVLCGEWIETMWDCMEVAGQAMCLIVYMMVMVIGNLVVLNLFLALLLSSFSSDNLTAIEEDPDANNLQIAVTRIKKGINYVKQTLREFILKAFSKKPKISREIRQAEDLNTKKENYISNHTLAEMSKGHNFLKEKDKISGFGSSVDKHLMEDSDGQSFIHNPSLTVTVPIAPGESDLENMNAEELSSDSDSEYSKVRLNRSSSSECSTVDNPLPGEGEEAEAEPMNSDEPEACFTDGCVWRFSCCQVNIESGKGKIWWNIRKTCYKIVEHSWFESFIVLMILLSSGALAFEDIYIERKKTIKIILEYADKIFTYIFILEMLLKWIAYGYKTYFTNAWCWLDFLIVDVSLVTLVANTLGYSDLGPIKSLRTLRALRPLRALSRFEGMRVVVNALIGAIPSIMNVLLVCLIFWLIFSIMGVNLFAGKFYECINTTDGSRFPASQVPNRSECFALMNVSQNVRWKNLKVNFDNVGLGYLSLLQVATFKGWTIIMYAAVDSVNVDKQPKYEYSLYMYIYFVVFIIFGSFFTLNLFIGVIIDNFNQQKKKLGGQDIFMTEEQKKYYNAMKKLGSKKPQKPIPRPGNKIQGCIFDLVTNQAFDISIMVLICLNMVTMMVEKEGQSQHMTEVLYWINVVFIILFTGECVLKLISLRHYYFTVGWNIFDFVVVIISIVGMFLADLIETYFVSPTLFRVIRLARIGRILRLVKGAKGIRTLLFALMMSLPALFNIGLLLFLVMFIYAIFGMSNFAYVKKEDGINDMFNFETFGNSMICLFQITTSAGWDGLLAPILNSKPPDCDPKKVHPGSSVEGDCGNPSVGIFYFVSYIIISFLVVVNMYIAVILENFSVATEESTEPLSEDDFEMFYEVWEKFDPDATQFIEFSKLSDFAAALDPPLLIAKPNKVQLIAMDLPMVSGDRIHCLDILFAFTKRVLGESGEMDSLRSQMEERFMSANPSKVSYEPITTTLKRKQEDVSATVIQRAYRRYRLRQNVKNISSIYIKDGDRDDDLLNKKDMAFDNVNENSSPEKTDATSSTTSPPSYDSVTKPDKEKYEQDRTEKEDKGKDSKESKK
UniProt Q14524, whole entry: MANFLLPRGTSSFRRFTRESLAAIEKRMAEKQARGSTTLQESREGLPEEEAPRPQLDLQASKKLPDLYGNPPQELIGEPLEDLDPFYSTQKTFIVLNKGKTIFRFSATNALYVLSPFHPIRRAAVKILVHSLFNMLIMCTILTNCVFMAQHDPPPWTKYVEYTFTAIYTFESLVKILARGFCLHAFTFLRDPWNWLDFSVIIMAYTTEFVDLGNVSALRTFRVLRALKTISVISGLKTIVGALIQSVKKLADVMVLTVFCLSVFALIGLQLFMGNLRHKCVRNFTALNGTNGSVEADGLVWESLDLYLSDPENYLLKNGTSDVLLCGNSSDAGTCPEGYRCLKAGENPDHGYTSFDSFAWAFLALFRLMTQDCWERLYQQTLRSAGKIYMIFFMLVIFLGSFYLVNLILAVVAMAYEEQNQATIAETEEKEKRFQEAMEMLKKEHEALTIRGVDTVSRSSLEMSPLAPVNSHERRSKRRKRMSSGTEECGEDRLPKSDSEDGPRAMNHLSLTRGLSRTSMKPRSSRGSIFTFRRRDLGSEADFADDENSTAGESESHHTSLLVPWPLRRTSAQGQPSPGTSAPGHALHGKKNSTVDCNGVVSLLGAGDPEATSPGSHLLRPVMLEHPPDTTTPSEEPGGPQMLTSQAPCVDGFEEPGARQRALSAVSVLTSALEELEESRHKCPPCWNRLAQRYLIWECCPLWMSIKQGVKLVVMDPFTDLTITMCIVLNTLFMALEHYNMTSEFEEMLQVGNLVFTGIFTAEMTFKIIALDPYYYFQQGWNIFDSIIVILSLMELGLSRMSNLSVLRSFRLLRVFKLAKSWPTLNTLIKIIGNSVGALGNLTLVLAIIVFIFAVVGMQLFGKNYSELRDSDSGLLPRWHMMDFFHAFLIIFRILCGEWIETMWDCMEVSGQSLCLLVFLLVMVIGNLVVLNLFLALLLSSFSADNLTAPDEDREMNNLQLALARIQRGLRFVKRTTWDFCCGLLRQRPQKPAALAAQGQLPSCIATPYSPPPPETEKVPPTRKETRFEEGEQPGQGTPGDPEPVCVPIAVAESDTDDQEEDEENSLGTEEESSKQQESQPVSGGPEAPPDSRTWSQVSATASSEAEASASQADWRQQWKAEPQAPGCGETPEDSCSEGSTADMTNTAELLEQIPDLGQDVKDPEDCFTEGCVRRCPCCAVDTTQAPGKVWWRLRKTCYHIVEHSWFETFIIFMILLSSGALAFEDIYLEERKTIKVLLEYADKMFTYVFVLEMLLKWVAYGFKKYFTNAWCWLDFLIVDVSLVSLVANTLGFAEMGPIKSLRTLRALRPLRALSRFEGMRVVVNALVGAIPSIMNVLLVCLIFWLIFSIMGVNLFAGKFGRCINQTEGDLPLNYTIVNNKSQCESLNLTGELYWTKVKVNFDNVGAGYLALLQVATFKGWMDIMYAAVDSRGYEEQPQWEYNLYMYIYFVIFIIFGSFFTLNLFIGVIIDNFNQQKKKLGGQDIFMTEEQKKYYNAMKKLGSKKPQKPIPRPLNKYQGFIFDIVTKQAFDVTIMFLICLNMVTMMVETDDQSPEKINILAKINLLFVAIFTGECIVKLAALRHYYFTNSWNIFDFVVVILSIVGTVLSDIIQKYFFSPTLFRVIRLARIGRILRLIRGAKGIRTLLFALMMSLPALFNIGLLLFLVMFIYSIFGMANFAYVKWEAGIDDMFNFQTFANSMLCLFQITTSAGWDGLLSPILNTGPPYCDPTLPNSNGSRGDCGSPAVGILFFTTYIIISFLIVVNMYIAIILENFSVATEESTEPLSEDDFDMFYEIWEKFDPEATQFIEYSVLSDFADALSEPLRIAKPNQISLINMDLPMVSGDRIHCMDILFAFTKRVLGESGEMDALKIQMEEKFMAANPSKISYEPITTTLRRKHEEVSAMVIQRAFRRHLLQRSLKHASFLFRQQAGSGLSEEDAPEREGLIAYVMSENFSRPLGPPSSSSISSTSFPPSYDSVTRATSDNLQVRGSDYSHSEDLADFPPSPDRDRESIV
UniProt Q07699, 19-218 partner limits assumed: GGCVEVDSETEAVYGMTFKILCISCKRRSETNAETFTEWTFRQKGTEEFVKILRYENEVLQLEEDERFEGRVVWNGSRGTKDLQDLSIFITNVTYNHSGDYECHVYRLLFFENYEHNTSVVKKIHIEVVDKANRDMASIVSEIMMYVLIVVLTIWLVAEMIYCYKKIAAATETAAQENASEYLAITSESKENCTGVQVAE

Tests used:
human Nav1.7 = human Nav1.7 (Homo sapiens (Human), UniProt Q15858); experiment: Human Nav1.7 inhibitory activity evaluation (automated patch clamp QPatch16X, HEK293A cells stably expressing human Nav1.7 and human Navβ1); conditions: read-out: NaV1.7 IC50
Procedure: Test Example 1: Human Nav1.7 Inhibitory Activity Evaluation
A cell line in which human Nav1.7 and human Navβ1 subunits were stably expressed in HEK293A cells was used. Dulbecco's Modified Eagle Medium (DMEM) supplemeted with 10% fetal bovine serum, 600 μg/ml geneticin, and 2 μg/ml blasticidin S were used as culture medium under the conditions of 37° C. and 5% CO2 in T175 flasks to carry out culturing. When 60-80% confluence was reached, the cells were detached and a cell suspension of about 0.5-5.0×10^6 cells/mL was prepared. The amount of current through human Nav1.7 was recorded using a fully automatic patch clamp device QPatch16X (Sophion Biosciences) at room temperature. As the extracellular solution, the solution of 145 mM NaCl, 4 mM KCl, 1 mM MgCl2, 2 mM CaCl2, 10 mM Glucose, 10 mM 4-(2-hydroxyethyl)-1-piperazine ethanesulfonic acid (HEPES) at pH 7.4 was used. As the intracellular solution, the solution of 135 mM CsF, ⅕ mM glycol ether diaminetetraacetic acid (EGTA)/CsOH, 10 mM HEPES, 10 mM NaCl at pH 7.3 was used. The test compounds were dissolved in dimethyl sulfoxide (DMSO) and diluted with the extracellular solution to attain the DMSO concentration of 0.1% at the time of assay.
The current response was obtained at a sampling frequency of 25 kHz, and noise was removed with a 3 kHz low-pass filter. The holding potential was −100 mV. Correction of the leakage current was carried out by applying a step pulse of −120 mV before the test pulse. In order to investigate inhibitory action of the test compound, the following test pulse was given: Namely, after depolarizing pulse of −10 mV was applied for 50 milliseconds, it was fixed at −120 mV for 500 milliseconds; a potential at which about 30-40% of the channel was inactivated was maintained for 15 seconds, then fixed again at −120 mV for 100 milliseconds, and finally a −10 mV depolarization pulse was given for 50 milliseconds. Test pulses were given before and after the test compound addition.
The inhibitory activity of the test compound was determined based on the amount of inward current generated by the second depolarization pulse, and the 50% inhibitory concentration (IC50) was calculated from the concentration-response curve.

human Nav1.5 = human Nav1.5 (Homo sapiens (Human), UniProt Q14524); experiment: Human Nav1.5 inhibitory activity evaluation (automated patch clamp QPatch16X, HEK293 cells stably expressing human Nav1.5); conditions: read-out: NaV1.5 IC50; human Nav1.5, automated patch clamp
Procedure: Test Example 2: Human Nav1.5 Inhibitory Activity Evaluation
A cell line in which human Nav1.5 was stably expressed in HEK293 cells was used. DMEM supplemeted with 15% fetal bovine serum, 500 μg/ml geneticin, 100 units/ml penicillin, 100 μg/ml streptomycin, 20 mM HEPES was used as culture medium under the conditions of 37° C. and 5% CO2 in T175 flasks to carry out culturing. When 60-80% confluence was reached, a cell suspension of about 0.5-5.0×10^6 cells/mL was prepared. The amount of current through human Nav1.5 was recorded using a fully automatic patch clamp device QPatch16X at room temperature. As the extracellular solution, 145 mM NaCl, 4 mM KCl, 1 mM MgCl2, 2 mM CaCl2, 10 mM Glucose, and 10 mM HEPES at pH 7.4 was used. As the intracellular solution, 135 mM CsF, ⅕ mM EGTA/CsOH, 10 mM HEPES, and 10 mM NaCl at pH 7.3 was used. The test compounds were dissolved in DMSO and diluted with the extracellular solution to attend the DMSO concentration of 0.1% at the time of assay.
The current response was obtained at a sampling frequency of 25 kHz, and noise was removed with a 3 kHz low-pass filter. The holding potential was −80 mV. Correction of the leakage current was carried out by applying a step pulse of −100 mV before the test pulse. In order to investigate human Nav1.5 inhibitory effect of the test compound, test pulses imitating the action potential of cardiomyocytes were continuously given 20 times. The test pulses were given before and after the test compound addition.
The inhibitory activity of the test compound was determined based on the amount of inward current generated by the 20th depolarization pulse, and the 50% inhibitory concentration (IC50) was calculated from the concentration-response curve.

[1] = human Nav1.7, automated patch clamp

Compound: O=C(N[C@H]1COc2ccc(C(F)(F)F)cc2C1F)c1cc2n(n1)CCC(C(F)F)O2 (single isomer, unassigned)
- IC50 (human Nav1.7; [1]): < 1000 nM

Compound: O=C(N[C@H]1COc2ccc(Cl)cc2C1)c1cc2n(n1)CCN(C1(CC(F)(F)F)CC1)C2
- IC50 (human Nav1.7; [1]): < 1000 nM
- IC50 (human Nav1.5): < 1000 nM

Compound: O=C(N[C@H]1COc2ccc(C(F)(F)F)cc2C1O)c1cc2n(n1)CC(COCC1CC1)O2 (single isomer, unassigned)
- IC50 (human Nav1.5): > 3000 nM

Compound: O=C(N[C@H]1COc2ccc(C(F)(F)F)cc2C1O)c1cc2n(n1)CCC(COCC1CC1)O2 (single isomer, unassigned)
- IC50 (human Nav1.7; [1]): < 10000 nM

Compound: O=C(N[C@H]1COc2ccc(Cl)cc2C1)c1cn2c(n1)OC(COCC1CC1)C2 (stereo partly drawn)
- IC50 (human Nav1.7; [1]): < 10000 nM

Compound: O=C(N[C@H]1COc2ccc(CC(F)F)cc2C1)c1cc2n(n1)CC(COCC(F)(F)F)O2 (stereo partly drawn)
- IC50 (human Nav1.7; [1]): < 1000 nM
- IC50 (human Nav1.5): > 3000 nM

Compound: N#Cc1ccc2c(c1)C[C@@H](NC(=O)c1cc3n(n1)CC(CC1CCOCC1)O3)CO2 (single isomer, unassigned)
- IC50 (human Nav1.7; [1]): < 10000 nM

Compound: O=C(N[C@H]1COc2ccc(C(F)(F)F)cc2C1)c1cc2n(n1)CC(CCN1CC(F)(F)C1)O2 (single isomer, unassigned)
- IC50 (human Nav1.7; [1]): < 1000 nM
- IC50 (human Nav1.5): 1000 to 3000 nM

Compound: O=C(N[C@H]1COc2ccc(Cl)cc2C1)c1cc2n(n1)CCC(COCc1ccccc1)O2 (stereo partly drawn)
- IC50 (human Nav1.7; HEK293A cells stably expressing human Nav1.7 and human Navβ1, automated patch clamp QPatch16X): < 1000 nM

Compound: O=C(N[C@H]1COc2ccc(C(F)(F)F)cc2C1)c1nn2c(c1-c1ccn[nH]1)C(=O)N(CC(F)(F)F)CC2
- IC50 (human Nav1.7; [1]): < 10000 nM

Compound: N#Cc1ccc2c(c1)C[C@@H](NC(=O)c1cc3n(n1)CCC(COCC(F)(F)F)CO3)CO2 (single isomer, unassigned)
- IC50 (human Nav1.7; [1]): < 10000 nM
- IC50 (human Nav1.5): > 3000 nM

Compound: O=C(N[C@H]1COc2ccc(Cl)cc2C1)c1cc2n(n1)CCN(C1(c3ccccn3)CC1)C2
- IC50 (human Nav1.7; [1]): < 10000 nM
- IC50 (human Nav1.5): 1000 to 3000 nM

Compound: O=C(N[C@H]1COc2ccc(Cl)cc2C1)c1nc2n(c1-c1ccn[nH]1)CCOC2
- IC50 (human Nav1.7; [1]): < 1000 nM

Where two headings read alike, the source gives them in different places.
